# Assay results taken from PubChem BioAssay AID651719 (The Scripps Research Institute Molecular Screening Center, 2012).
# The chains behind the UniProt entries cited, without tags or fusion partners. Residues count along the entry.
# UniProt O60755, 1-299 limits assumed: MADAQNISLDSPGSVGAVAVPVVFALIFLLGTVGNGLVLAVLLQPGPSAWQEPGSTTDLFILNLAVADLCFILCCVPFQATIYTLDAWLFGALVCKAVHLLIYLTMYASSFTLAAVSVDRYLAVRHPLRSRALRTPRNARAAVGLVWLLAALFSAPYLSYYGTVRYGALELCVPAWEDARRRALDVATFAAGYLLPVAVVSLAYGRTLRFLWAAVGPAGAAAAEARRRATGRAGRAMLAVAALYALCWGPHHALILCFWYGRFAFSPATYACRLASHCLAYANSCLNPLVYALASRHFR
# This is a selection; strong and weak results do not stand in their true shares. Calls of active or inactive are those of the source.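 How the source made its calls: active means inhibition above the screen-wide average plus 3 SD (cut at about 13% in these data); inactive means the rest.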
# Target: Galanin receptor type 3 (Homo sapiens) (UniProt O60755)
# Test: blockers of human galanin receptor 3 – cell-based, fluorescence readout, primary screen (AID 651719);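 further: forskolin and galanin both at EC90 stimulate the cells; cAMP rise reported by CNG channel membrane potential dye signal; 0% = forskolin plus galanin with DMSO and 100% = forskolin alone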
# Details: HEK293 GalR3-CNG cAMP membrane potential fluorescence; at 3 µM; stronger effect = higher value; galR3 body fused to GalR1 C-terminus
row,Structure (SMILES),inhibition
1,O=C(NCC1(N2CCCCC2)CCCCC1)c1ccc(Cl)nc1,inactive: 2.03%
2,O=c1[nH]c2ccccc2n1C1CCN(C(c2ccccc2OC(F)(F)F)c2nnnn2C2CCCCC2)CC1 (stereo not drawn),inactive: -5.56%
3,Cc1cc(C)cc(N(C(=O)c2ccccc2)C2CCN(C(=O)OC(C)(C)C)CC2)c1,inactive: -12.3%
4,O=C(NCC1(N2CCOCC2)CCCCC1)c1cc2ccccc2o1,inactive: -2.65%
5,N#CC1(Nc2ccccc2)CCN(Cc2ccccc2)CC1,inactive: -5.25%
6,O=C(NCC1(N2CCCCC2)CCCCC1)c1ccc(Cl)s1,inactive: -0.07%
7,O=c1[nH]c2ccccc2n1C1CCN(C(c2cc3ccccc3o2)c2nnnn2C2CCCCC2)CC1 (stereo not drawn),inactive: -6.06%
8,O=C(OC1CN2CCC1CC2)C1c2ccccc2Oc2ccccc21 (stereo not drawn),inactive: -7.22%
9,COc1ccc(Cl)cc1C(=O)NCC1(N2CCOCC2)CCCCC1,inactive: -3.38%
10,CCOC(=O)N1CCC(Nc2ccc(OC)cc2)CC1,inactive: -4.49%
11,CCCCn1nnnc1C(c1ccc(OC)cc1)N1CCC(n2c(=O)[nH]c3ccccc32)CC1 (stereo not drawn),inactive: -5.73%
12,COc1ccc(C(=O)NCC2(N3CCCCC3)CCCCC2)cc1,inactive: -8.09%
13,CC(C)(C)OC(=O)N1CCC(N(C(=O)c2ccccc2)c2ccc(F)cc2)CC1,inactive: -11.8%
14,COc1ccc(C(=O)NCC2(N3CCCCC3)CCCCC2)c(OC)c1OC,inactive: -3.18%
15,CCC(c1nnnn1C1CCCC1)N1CCC(n2c(=O)[nH]c3ccccc32)CC1 (stereo not drawn),inactive: -4.99%
16,O=C(NCC1(N2CCCCC2)CCCCC1)c1ccc(=O)[nH]c1,inactive: 5.23%
17,O=C(NCC1(N2CCCCC2)CCCCC1)c1cccs1,inactive: 4.79%
18,CCCCn1nnnc1C(CC)N1CCC(n2c(=O)[nH]c3ccccc32)CC1 (stereo not drawn),inactive: -2.07%
19,CCCCn1nnnc1C(c1cccs1)N1CCC(n2c(=O)[nH]c3ccccc32)CC1 (stereo not drawn),inactive: -0.2%
20,CSc1ccccc1C(=O)NCC1(N2CCCCC2)CCCCC1,inactive: -9.23%
21,Cc1cccc(NC2(C#N)CCN(Cc3ccccc3)CC2)c1,inactive: 3.04%
22,O=c1[nH]c2ccccc2n1C1CCN(C(c2ccccc2)c2nnnn2C2CCCCC2)CC1 (stereo not drawn),inactive: -5.78%

row,Structure (SMILES),inhibition
1,CCOC(=O)N1CCC(Nc2cccc(C)c2)CC1,inactive: -7.71%
2,COc1cc(C(=O)NCC2(N(C)C)CCCCC2)ccc1OC(F)F,inactive: -7.79%
3,O=c1[nH]c2ccccc2n1C1CCN(C(c2cccc3ccccc23)c2nnnn2C2CCCC2)CC1 (stereo not drawn),inactive: -7.53%
4,CC(C)(C)n1nnnc1C(c1ccccc1)N1CCC(n2c(=O)[nH]c3ccccc32)CC1 (stereo not drawn),inactive: -8.37%
5,O=C1CCN(Cc2ccccc2)CC1,inactive: -6.39%
6,CCOc1ccc(C)cc1CN(CCCl)CCCl,inactive: -0.14%
7,CCCCOc1ccc(C(=O)NCC2(N3CCOCC3)CCCCC2)cc1,inactive: 0.17%
8,O=P1(N(CCCl)CCCl)SCCCS1,inactive: -4.23%
9,CCCCn1nnnc1C(c1cc2ccccc2o1)N1CCC(n2c(=O)[nH]c3ccccc32)CC1 (stereo not drawn),inactive: -6.82%
10,O=C(NCC1(N2CCCCC2)CCCCC1)c1ccc(F)cc1,inactive: -7.15%
11,CCOC(=O)N1CCC(Nc2ccc(F)cc2)CC1,inactive: -8.21%
12,COc1ccc(NC2CCN(CCc3ccccc3)CC2)c(OC)c1,inactive: -5.19%
13,O=C(NCC1(N2CCCCC2)CCCCC1)c1cccc(C(F)(F)F)c1,inactive: -8.48%
14,O=C(NCC1(N2CCOCC2)CCCCC1)c1cc(=O)[nH]c2ccccc12,inactive: 4.42%
15,COc1cc(C(=O)NCC2(N3CCCCC3)CCCCC2)ccc1OC(F)F,inactive: -8.83%
16,CC(C)c1ccc(C(=O)NCC2(N3CCOCC3)CCCCC2)cc1,inactive: 6.44%
17,COc1ccc(NC2CCN(C(=O)OC(C)(C)C)CC2)cc1,inactive: 0.26%
18,CN1CCN(CCOC(=O)C(O)(c2ccccc2)c2ccccc2)CC1,inactive: -0.09%
19,CCCCn1nnnc1C(c1cccc2ccccc12)N1CCC(n2c(=O)[nH]c3ccccc32)CC1 (stereo not drawn),inactive: -7.33%
20,CC(C)(C)n1nnnc1C(c1ccccc1OC(F)(F)F)N1CCC(n2c(=O)[nH]c3ccccc32)CC1 (stereo not drawn),inactive: -6.3%
21,O=C(NCC1(N2CCCCC2)CCCCC1)c1ccc(OC(F)F)cc1,inactive: 0.98%
22,CCN1CCC(Nc2ccc(Cl)cc2)CC1,inactive: 0.43%

row,Structure (SMILES),inhibition
1,O=c1[nH]c2ccccc2n1C1CCN(C(c2ccccc2OC(F)(F)F)c2nnnn2C2CCCC2)CC1 (stereo not drawn),inactive: 3.49%
2,N#CC1(Nc2ccccc2)CCN(CCc2ccccc2)CC1,inactive: -1.31%
3,CSc1ccc(C(=O)NCC2(N3CCOCC3)CCCCC2)cc1,inactive: -1.25%
4,O=C(NCC1(N2CCCCC2)CCCCC1)c1cccc([N+](=O)[O-])c1,inactive: 4.73%
5,CN1CCC(Nc2cccc(F)c2)CC1,inactive: -6.12%
6,O=C(NCC1(N2CCCCC2)CCCCC1)c1cncc(Br)c1,inactive: 4.26%
7,COc1ccc(C(c2nnnn2C2CCCC2)N2CCC(n3c(=O)[nH]c4ccccc43)CC2)cc1 (stereo not drawn),inactive: -6.07%
8,Cc1ccc(C(=O)NCC2(N(C)C)CCCCC2)o1,inactive: -3.09%
9,CCCOc1ccc(C(=O)NCC2(N(C)C)CCCCC2)cc1OC,inactive: 1.2%
10,CC(C)c1ccc(NC2CCN(C(=O)OC(C)(C)C)CC2)cc1,inactive: -3.59%
11,COc1ccc(CN(CCCl)CCCl)cc1Cl,inactive: -1.92%
12,CN(C)c1cccc(C(=O)NCC2(N3CCCCC3)CCCCC2)c1,inactive: -7.01%
13,COc1cc(OC)c(C(=O)NCC2(N(C)C)CCCCC2)cc1OC,inactive: -12.3%
14,CCC(c1nnnn1C(C)(C)C)N1CCC(n2c(=O)[nH]c3ccccc32)CC1 (stereo not drawn),inactive: -4.96%
15,O=C(NCC1(N2CCOCC2)CCCCC1)c1cc(F)c(F)cc1Cl,inactive: -4.99%
16,CCCCn1nnnc1C(c1ccnc2ccccc12)N1CCC(n2c(=O)[nH]c3ccccc32)CC1 (stereo not drawn),inactive: -5.94%
17,CCOC(=O)N1CCC(Nc2ccc(C)cc2)CC1,inactive: -10.5%
18,COc1cccc(C(c2nnnn2C(C)(C)C)N2CCC(n3c(=O)[nH]c4ccccc43)CC2)c1OC (stereo not drawn),inactive: -4.23%
19,N/C(=N\O)c1c(N)no[n+]1[O-],inactive: 2.43%
20,O=C(OC1CN2CCC1CC2)C1c2ccccc2C=Cc2ccccc21 (stereo not drawn),inactive: -0.95%
21,O=c1[nH]c2ccccc2n1C1CCN(C(c2cccs2)c2nnnn2C2CCCC2)CC1 (stereo not drawn),inactive: -6.18%
22,CCCCn1nnnc1C(c1cccc(OC)c1OC)N1CCC(n2c(=O)[nH]c3ccccc32)CC1 (stereo not drawn),inactive: -5.31%

row,Structure (SMILES),inhibition
1,CCCCn1nnnc1C(c1ccccc1)N1CCC(n2c(=O)[nH]c3ccccc32)CC1 (stereo not drawn),inactive: -4.79%
2,COc1cc(C(=O)NCC2(N3CCOCC3)CCCCC2)cc(OC)c1C,inactive: -1.83%
3,O=C(NCC1(N2CCOCC2)CCCCC1)c1cc(Br)ccc1Cl,inactive: -4.13%
4,O=c1[nH]c2ccccc2n1C1CCN(C(c2cccs2)c2nnnn2C2CCCCC2)CC1 (stereo not drawn),inactive: -0.97%
5,COc1ccc(C(=O)NCC2(N3CCOCC3)CCCCC2)cc1OC,inactive: -1.51%
6,O=c1[nH]c2ccccc2n1C1CCN(C(c2ccnc3ccccc23)c2nnnn2C2CCCC2)CC1 (stereo not drawn),inactive: -4.11%
7,CN(C)C1(CNC(=O)c2cccc(C#N)c2)CCCCC1,inactive: -7.21%
8,C/C(N)=N\P(=O)(Oc1ccccc1)Oc1ccccc1,inactive: -6.11%
9,c1ccc(CN2CCC(Nc3ccccc3)CC2)cc1,inactive: -1.41%
10,Cc1cc(N(CCCl)CCCl)ccc1C=O,inactive: -2.58%
11,O=c1[nH]c2ccccc2n1C1CCN(C(c2ccccc2)c2nnnn2C2CCCC2)CC1 (stereo not drawn),inactive: -6.31%
12,CCCN1CCC(Nc2cc(OC)cc(OC)c2)CC1,inactive: -8.34%
13,CC(C)(C)n1nnnc1C(c1cccc2ccccc12)N1CCC(n2c(=O)[nH]c3ccccc32)CC1 (stereo not drawn),inactive: -4.89%
14,N#Cc1ccc(C(=O)NCC2(N3CCCCC3)CCCCC2)cc1,inactive: -3.95%
15,CC(C)(C)OC(=O)N1CCC(N(C(=O)c2ccccc2)c2ccc(Cl)cc2)CC1,inactive: -13.8%
16,Cc1ccccc1NC1(C#N)CCN(Cc2ccccc2)CC1,inactive: 3.03%
17,CCN1CCC(Nc2cccc(F)c2)CC1,inactive: -1.99%
18,COc1ccc(C(c2nnnn2C2CCCCC2)N2CCC(n3c(=O)[nH]c4ccccc43)CC2)cc1 (stereo not drawn),inactive: -1.9%
19,CC(C)(C)n1nnnc1C(c1ccnc2ccccc12)N1CCC(n2c(=O)[nH]c3ccccc32)CC1 (stereo not drawn),inactive: 0.53%
20,O=C(NCC1(N2CCCCC2)CCCCC1)c1ccco1,inactive: -1.14%
21,CN(C)c1ccc(C(=O)NCC2(N3CCCCC3)CCCCC2)cc1,inactive: -1.1%
22,Cn1c(=O)[nH]cc(N(CCCl)CCCl)c1=O,inactive: 2.98%

row,Structure (SMILES),inhibition
1,COc1cccc(C(c2nnnn2C2CCCCC2)N2CCC(n3c(=O)[nH]c4ccccc43)CC2)c1OC (stereo not drawn),inactive: -5.92%
2,CC(=O)N(c1ccccc1)C1CCNCC1,inactive: -3.86%
3,CCC(c1nnnn1C1CCCCC1)N1CCC(n2c(=O)[nH]c3ccccc32)CC1 (stereo not drawn),inactive: 3.83%
4,COc1cc(OC)cc(C(=O)NCC2(N3CCCCC3)CCCCC2)c1,inactive: -11.3%
5,O=c1[nH]c2ccccc2n1C1CCN(C(c2ccnc3ccccc23)c2nnnn2C2CCCCC2)CC1 (stereo not drawn),inactive: -3.58%
6,Cc1ccc(C(=O)NCC2(N3CCCCC3)CCCCC2)o1,inactive: -2.76%
7,Fc1ccccc1NC1CCN(Cc2ccccc2)CC1,inactive: -0.86%
8,Cc1ccc(NC2(C#N)CCN(Cc3ccccc3)CC2)cc1,inactive: -4.53%
9,COc1cccc(C(=O)N(c2cc(C)cc(C)c2)C2CCN(C(=O)OC(C)(C)C)CC2)c1,inactive: -11.8%
10,COc1cccc(C(c2nnnn2C2CCCC2)N2CCC(n3c(=O)[nH]c4ccccc43)CC2)c1OC (stereo not drawn),inactive: -3.88%
11,COc1cc(OC)cc(C(=O)NCC2(N3CCOCC3)CCCCC2)c1,inactive: -2.96%
12,CCC(CO)(C(=O)OC1CN2CCC1CC2)c1ccccc1 (stereo not drawn),inactive: -2.09%
13,CN1CCC(Nc2ccc(Cl)cc2)CC1,inactive: -10.7%
14,CCOc1ncccc1C(=O)NCC1(N2CCOCC2)CCCCC1,inactive: -3.29%
15,CN1CCC(Nc2ccc(F)c(Cl)c2)CC1,inactive: -12.9%
16,CC(C)(C)OC(=O)N1CCC(Nc2ccccc2)CC1,inactive: 4.87%
17,NN(c1ccccc1)C1CCN(CCc2ccccc2)CC1,inactive: -4.97%
18,O=C(O)C1(Nc2ccccc2)CCN(Cc2ccccc2)CC1,inactive: -6.82%
19,O=c1[nH]c2ccccc2n1C1CCN(C(c2cc3ccccc3o2)c2nnnn2C2CCCC2)CC1 (stereo not drawn),inactive: -3.82%
20,CCCOc1ccc(C(=O)NCC2(N(C)C)CCCCC2)cc1,inactive: -6.92%
